# Tested on: Caco-2
# Assay: Apparent permeability across basolateral to apical to side in human Caco2 cells at 10 microM for 2 hrs by LC-MS/MS analysis
# Type: ADME, cell-based
# Conditions: caco-2, 2 h
compound,measurement,value
CNC(=C[N+](=O)[O-])NCCSCc1ccc(CN(C)C)o1 [RANITIDINE],Papp,1.2 ucm/s

# From ChEMBL document CHEMBL3124870, “Discovery and characterization of potent thiazoles versus methicillin- and vancomycin-resistant Staphylococcus aureus” (J Med Chem, 2014)
